The test concerns Bortezomib-resistant RPMI 8226 multiple myeloma cells. Description: Inhibitory concentrations (ICx, inhibition of cell growth) of the drugs in FSC-derived optimal combinations, Bortezomib-resistant multiple myeloma. In kind it is cell-based. Conditions: concentration of the single drug as used in optimal combinations.

Consider `Nc1ncn([C@H]2C[C@H](O)[C@@H](CO)O2)c(=O)n1` [Decitabine, 5-aza-2′-deoxycytidine], for which the IC22.5 was around 1.28 µM.

(Values after patent US20190125772A1, “IMPROVED DRUG COMBINATIONS FOR DRUG-RESISTANT AND DRUG-SENSITIVE MULTIPLE MYELOMA” (priority 2015, published 2019).)
